By UniProt entry, the sequences of proteins in these tests, tags left out. Residues count along the entry.
UniProt G1T803, 1-400: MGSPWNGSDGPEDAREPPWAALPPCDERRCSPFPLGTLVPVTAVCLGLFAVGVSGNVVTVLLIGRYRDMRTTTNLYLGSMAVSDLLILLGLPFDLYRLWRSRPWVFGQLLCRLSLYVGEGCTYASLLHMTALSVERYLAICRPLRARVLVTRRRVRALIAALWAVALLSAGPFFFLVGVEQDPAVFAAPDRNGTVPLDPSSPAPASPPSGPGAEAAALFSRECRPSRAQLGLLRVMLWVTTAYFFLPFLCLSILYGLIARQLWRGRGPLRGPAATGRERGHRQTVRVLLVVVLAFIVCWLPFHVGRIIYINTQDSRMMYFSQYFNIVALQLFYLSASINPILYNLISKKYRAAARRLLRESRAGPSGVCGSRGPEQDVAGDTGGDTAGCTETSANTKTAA
UniProt O43193, whole entry: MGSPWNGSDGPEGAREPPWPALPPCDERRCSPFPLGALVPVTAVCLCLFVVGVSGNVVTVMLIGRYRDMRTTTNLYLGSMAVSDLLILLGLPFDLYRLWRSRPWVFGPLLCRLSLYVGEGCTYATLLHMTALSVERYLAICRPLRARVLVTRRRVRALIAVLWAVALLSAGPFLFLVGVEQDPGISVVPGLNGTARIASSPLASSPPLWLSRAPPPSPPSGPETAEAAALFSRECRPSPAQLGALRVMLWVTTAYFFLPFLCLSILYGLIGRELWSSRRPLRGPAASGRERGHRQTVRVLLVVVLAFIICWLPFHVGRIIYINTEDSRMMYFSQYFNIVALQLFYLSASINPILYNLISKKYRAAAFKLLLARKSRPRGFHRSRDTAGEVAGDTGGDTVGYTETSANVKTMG

According to patent US20090240027A1:

target: motilin receptor (Oryctolagus cuniculus, UniProt G1T803); test: Rabbit duodenum contractility assay (Method B4); settings: from Schild plots; antagonism of motilin-induced contraction of rabbit duodenum

Compound | pA2
CC(C)[C@H]1NC(=O)[C@@H](Cc2cccc(Cl)c2)NCCOc2ccccc2CCCNC(=O)[C@H](CC2CC2)NC1=O | 6.95

target: T1, human motilin receptor (Homo sapiens, UniProt O43193); test: Aequorin functional assay (Method B2); settings: read-out: IC50, Aequorin (Method B2); antagonist testing against motilin at EC80 (0.5 nM)

Compound | IC50 [nM]
CC(C)[C@H]1NC(=O)[C@@H](Cc2cccc(Cl)c2)NCCOc2cccnc2CCCNC(=O)[C@H](CC2CC2)NC1=O | 100 to 1000

target: T1, human motilin receptor; test: Competitive radioligand binding assay (Method B1); settings: read-out: Binding (Ki); Table 4; [125I]-motilin competition

Compound | Ki [nM]
CC(C)[C@H]1NC(=O)[C@@H](Cc2cccc(Cl)c2)NCCOc2cccnc2CCCNC(=O)[C@H](CC2CC2)NC1=O | 1 to 100

same assay, conditions: read-out: Ki (binding activity); Radioligand competitive binding assay, Method B1; values reported as ranges

Compound | Ki [nM]
CCC[C@@H]1NC(=O)[C@@H](C(C)C)NC(=O)[C@@H](Cc2cccs2)NCCOc2ccccc2CCCNC1=O | 1 to 100
CCC[C@@H]1NC(=O)[C@@H](C(C)C)NC(=O)[C@@H](Cc2ccc(O)cc2)NC/C=C/CCNC1=O | 100 to 1000
CCC[C@@H]1NC(=O)[C@@H](C(C)C)OC(=O)[C@@H](Cc2cccc3ccccc23)NCCOc2ccccc2CCCNC1=O | 100 to 1000
CCC[C@@H]1NC(=O)[C@@H](C(C)C)OC(=O)[C@@H](Cc2ccc(OC)cc2)NCCOc2ccccc2CCCNC1=O | 100 to 1000
CC(C)[C@H]1NC(=O)[C@@H](Cc2ccc(F)cc2)NCCOc2cccnc2CCCNC(=O)[C@H](CC2CC2)NC1=O | 100 to 1000
CCC[C@@H]1NC(=O)[C@@H](C(C)C)NC(=O)[C@@H](Cc2ccc(O)cc2)NC[C@@H](C)Oc2ccccc2CCCNC1=O | 100 to 1000
CC(C)[C@H]1NC(=O)[C@@H](Cc2ccc(O)cc2)NCCOc2ccccc2CCCNC(=O)[C@H](CN)NC1=O | 100 to 1000
CC(C)C[C@@H]1NC(=O)[C@@H](C(C)C)NC(=O)[C@@H](Cc2cccc(Cl)c2)NC/C=C/CCNC1=O | 1000 to 10000
CCC[C@@H]1OC(=O)[C@@H](C(C)C)NC(=O)[C@@H](Cc2ccc(O)cc2)NCCOc2ccccc2CCCNC1=O | 100 to 1000
CC(C)[C@H]1NC(=O)[C@@H](Cc2ccc(O)cc2)NCCOc2ccccc2/C=C/CNC(=O)CCNC1=O | 100 to 1000
COc1ccc(C[C@H]2NCCOc3cccnc3CCCNC(=O)[C@H](CC3CC3)NC(=O)[C@@H](C(C)C)NC2=O)cc1 | 100 to 1000
CC(C)[C@H]1NC(=O)[C@@H](Cc2ccc(F)cc2)NCCOc2ccccc2CCCNC(=O)[C@H](CC2CC2)NC1=O | 1 to 100
CC(C)[C@H]1NC(=O)[C@@H](Cc2cccc3ccccc23)NCCOc2cccnc2CCCNC(=O)[C@H](CC2CC2)NC1=O | 100 to 1000
CC1CNC(=O)[C@H](CC2CC2)NC(=O)[C@@H](C(C)C)NC(=O)[C@@H](Cc2cccc(Cl)c2)NCCOc2ccccc2C1 (stereo partly shown) | 1 to 100
CC(C)[C@H]1NC(=O)[C@@H](Cc2cccs2)NCCOc2ccccc2CCCNC(=O)[C@H](CC2CC2)NC1=O | 100 to 1000
CCC[C@@H]1NC(=O)[C@@H](C(C)C)NC(=O)[C@@H](Cc2cccc(F)c2)NCCOc2ccccc2C(C)CCNC1=O (stereo partly shown) | 1 to 100
CCC[C@@H]1NC(=O)[C@@H](C(C)C)NC(=O)[C@@H](Cc2ccccc2)NCCOc2ccccc2CCCNC1=O | 100 to 1000
CCC[C@@H]1NC(=O)[C@@H](C(C)C)OC(=O)[C@@H](Cc2ccc(O)cc2)NCCOc2ccccc2CCCNC1=O | 100 to 1000
CC(C)C[C@@H]1NC(=O)[C@@H](C(C)C)NC(=O)[C@@H](Cc2cccc3ccccc23)NCCOc2ccccc2CCCNC1=O | 1 to 100
CC(C)[C@H]1NC(=O)[C@@H](Cc2cccc(Cl)c2)NCCOc2cccnc2CCCNC(=O)[C@H](CC2CC2)NC1=O | 1 to 100
CC(C)C[C@@H]1NC(=O)[C@@H](C(C)C)NC(=O)[C@@H](Cc2cccc(Cl)c2)NCCOc2cccnc2CCCNC1=O | 100 to 1000
CCC[C@@H]1NC(=O)[C@@H](C(C)C)NC(=O)[C@@H](Cc2ccc(O)cc2)NC[C@H](C)Oc2ccccc2CCCNC1=O | 100 to 1000
CC(C)C[C@H]1C(=O)NCCCc2ccccc2OCCN[C@H](Cc2ccc(O)cc2)C(=O)N[C@H](C(C)C)C(=O)N1C | 100 to 1000
CCC[C@@H]1NC(=O)[C@@H](C(C)C)NC(=O)[C@@H](Cc2ccc(O)cc2)NCCOc2ccccc2CCCNC1=O | 1 to 100
CC(C)[C@H]1NC(=O)[C@@H](Cc2cccc(Cl)c2)NCCOc2ccccc2CCCNC(=O)[C@H](CC2CC2)NC1=O | 1 to 100
